Target: Muscarinic acetylcholine receptor M2 (Homo sapiens, UniProt P08172)

The chains behind the UniProt entries cited, without tags or fusion partners.
UniProt P08172, whole entry: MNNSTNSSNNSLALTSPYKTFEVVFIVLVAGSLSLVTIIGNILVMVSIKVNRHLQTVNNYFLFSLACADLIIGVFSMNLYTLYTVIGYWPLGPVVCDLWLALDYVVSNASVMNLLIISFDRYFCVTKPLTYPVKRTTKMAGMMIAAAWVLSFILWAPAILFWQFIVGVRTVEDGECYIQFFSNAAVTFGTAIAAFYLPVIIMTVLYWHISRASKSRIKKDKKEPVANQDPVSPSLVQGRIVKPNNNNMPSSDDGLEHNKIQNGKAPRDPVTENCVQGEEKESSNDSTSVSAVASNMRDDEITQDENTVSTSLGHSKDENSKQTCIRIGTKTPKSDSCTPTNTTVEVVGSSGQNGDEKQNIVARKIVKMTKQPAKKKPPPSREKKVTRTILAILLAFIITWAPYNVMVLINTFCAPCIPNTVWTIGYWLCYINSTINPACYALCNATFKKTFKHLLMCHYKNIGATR

- Ki: 126 nM
Structure (SMILES): CCCCCCOc1nsnc1C1=CCCN(C)C1
